Results taken from ChEMBL document CHEMBL2203047, “Discovery and SAR of a novel series of non-MPEP site mGlu₅ PAMs based on an aryl glycine sulfonamide scaffold” (Bioorg Med Chem Lett, 2012).

Key:
[1] = Hepatic extraction ratio in Sprague-Dawley rat at 10 mg/kg, po; type: ADME, organism-based; parameters: dose 10 mg/kg, route oral; conditions: in vivo, read-out: ERH
[2] = Ratio of AUC in rat hepatic portal vein blood to AUC in rat plasma; type: ADME, cell-free; conditions: in vivo

## CS(=O)(=O)N(CC(=O)NCC1CC1)c1cc(C(F)(F)F)ccc1Cl
[1]
  hepatic extraction ratio: 0.98
[2]
  Ratio AUC: 52
